Measured values: patent US10806707B2, “Cannabis oil compositions and methods for preparation thereof” (priority 2015, dated 2020)

The chains behind the UniProt entries cited, without tags or fusion partners.
UniProt P34972, whole entry, species assumed: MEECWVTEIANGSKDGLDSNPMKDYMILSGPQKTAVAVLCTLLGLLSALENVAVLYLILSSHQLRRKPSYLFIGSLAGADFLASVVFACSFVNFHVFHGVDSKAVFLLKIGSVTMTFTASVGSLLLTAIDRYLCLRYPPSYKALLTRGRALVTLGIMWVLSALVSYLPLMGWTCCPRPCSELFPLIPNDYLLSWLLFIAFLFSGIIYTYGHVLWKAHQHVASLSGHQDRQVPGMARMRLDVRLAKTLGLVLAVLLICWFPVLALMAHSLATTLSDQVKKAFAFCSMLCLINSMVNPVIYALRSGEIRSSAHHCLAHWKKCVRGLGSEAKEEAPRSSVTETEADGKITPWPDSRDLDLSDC

How the values were obtained:
CNR2 (also known as CB2) [1] = target: T1, CNR2 (also known as CB2) (Homo sapiens, UniProt P34972); experiment: cAMP competitive inhibition immunoassay (HitHunter), CNR2 activation; assay type: cell-based; conditions: CNR2, cAMP assay
T1 construct: β-galactosidase enzyme fragment (implied by the complementation read-out)

CNR2 (also known as CB2) [2] = target: T1, CNR2 (also known as CB2); experiment: β-arrestin GPCR assay (PathHunter), CNR2 activation; assay type: cell-based; conditions: CNR2, β-arrestin recruitment

(−)-cannabidiol [CBD] showed an EC50 (CNR2 (also known as CB2) [1]) of over 16.7 µM and an EC50 (CNR2 (also known as CB2) [2]) of over 16.7 µM.
